Tests used:
Assay in all cases: Two-electrode voltage-clamp recordings, Xenopus oocytes
Format in all cases: cell-based
[1] = molecular target: GluN1/GluN2A (Rattus norvegicus, UniProt P35439+Q00959); conditions: for Glycine activity nH: 100 μM glutamate
[2] = molecular target: GluN1/GluN2B (Rattus norvegicus, UniProt P35439+Q00960); conditions: 100 μM glutamate
[3] = molecular target: GluN1/GluN2B F784V (Rattus norvegicus, UniProt P35439+Q00960, F784V); conditions: 100 μM glutamate
[4] = molecular target: GluN1/GluN2B L783F+F784V (Rattus norvegicus, UniProt P35439+Q00960, F784V/L783F); conditions: 100 μM glutamate
[5] = molecular target: GluN1/GluN2A V783L (Rattus norvegicus, UniProt P35439+Q00959, V783L); conditions: 100 μM glutamate
[6] = molecular target: GluN1/GluN2A G786D (Rattus norvegicus, UniProt P35439+Q00959, G786D); conditions: 100 μM glutamate
[7] = molecular target: GluN1/GluN2A E790M (Rattus norvegicus, UniProt P35439+Q00959, E790M); conditions: 100 μM glutamate, 0 μM TCN-201
[8] = molecular target: GluN1/GluN2A M788I (Rattus norvegicus, UniProt P35439+Q00959, M788I); conditions: 100 μM glutamate, 0 μM TCN-201
[9] = molecular target: GluN1/GluN2A T793R (Rattus norvegicus, UniProt P35439+Q00959, T793R); conditions: 100 μM glutamate, 0 μM TCN-201
[10] = molecular target: GluN1/GluN2A V783A (Rattus norvegicus, UniProt P35439+Q00959, V783A)
[11] = molecular target: GluN1/GluN2A V783F (Rattus norvegicus, UniProt P35439+Q00959, V783F)
[12] = molecular target: GluN1/GluN2A V783W (Rattus norvegicus, UniProt P35439+Q00959, V783W); conditions: 100 μM glutamate, 0 μM TCN-201
[13] = molecular target: GluN1/GluN2A V783S (Rattus norvegicus, UniProt P35439+Q00959, V783S); conditions: 100 μM glutamate, 0 μM TCN-201
[14] = molecular target: GluN1/GluN2A V783T (Rattus norvegicus, UniProt P35439+Q00959, V783T); conditions: 100 μM glutamate, 0 μM TCN-201
[15] = molecular target: GluN1/GluN2A V783H (Rattus norvegicus, UniProt P35439+Q00959, V783H); conditions: 100 μM glutamate, 0 μM TCN-201
[16] = molecular target: GluN1/GluN2A V783D (Rattus norvegicus, UniProt P35439+Q00959, V783D); conditions: 100 μM glutamate, 0 μM TCN-201
[17] = molecular target: GluN1/GluN2A P527A (Rattus norvegicus, UniProt P35439+Q00959, P527A); conditions: 100 μM glutamate, 0 μM TCN-201
[18] = molecular target: GluN1/GluN2A L777A (Rattus norvegicus, UniProt P35439+Q00959, L777A); conditions: 100 μM glutamate, 0 μM TCN-201
[19] = molecular target: GluN1/GluN2A L779A (Rattus norvegicus, UniProt P35439+Q00959, L779A); conditions: 100 μM glutamate, 0 μM TCN-201
[20] = molecular target: GluN1/GluN2A L780A (Rattus norvegicus, UniProt P35439+Q00959, L780A); conditions: 100 μM glutamate, 0 μM TCN-201
[21] = molecular target: GluN1/GluN2A Q781A (Rattus norvegicus, UniProt P35439+Q00959, Q781A); conditions: 100 μM glutamate, 0 μM TCN-201
[22] = molecular target: GluN1/GluN2A G786A (Rattus norvegicus, UniProt P35439+Q00959, G786A); conditions: 100 μM glutamate, 0 μM TCN-201
[23] = molecular target: GluN1/GluN2A M788A (Rattus norvegicus, UniProt P35439+Q00959, M788A); conditions: 100 μM glutamate, 0 μM TCN-201
[24] = molecular target: GluN1/GluN2A E789A (Rattus norvegicus, UniProt P35439+Q00959, E789A); conditions: 100 μM glutamate, 0 μM TCN-201
[25] = molecular target: GluN1 I519A co-expressed with GluN2A (Rattus norvegicus, UniProt P35439+Q00959, I519A); conditions: 100 μM glutamate, 0 μM TCN-201
[26] = molecular target: GluN1 F754A co-expressed with GluN2A (Rattus norvegicus, UniProt P35439+Q00959, F754A); conditions: 100 μM glutamate, 0 μM TCN-201
[27] = molecular target: GluN1 R755A co-expressed with GluN2A (Rattus norvegicus, UniProt P35439+Q00959, R755A)

Sequences of proteins named here, by UniProt entry; tags and fusion partners are left off. Residues count along the entry.
UniProt Q00959, 23-1464: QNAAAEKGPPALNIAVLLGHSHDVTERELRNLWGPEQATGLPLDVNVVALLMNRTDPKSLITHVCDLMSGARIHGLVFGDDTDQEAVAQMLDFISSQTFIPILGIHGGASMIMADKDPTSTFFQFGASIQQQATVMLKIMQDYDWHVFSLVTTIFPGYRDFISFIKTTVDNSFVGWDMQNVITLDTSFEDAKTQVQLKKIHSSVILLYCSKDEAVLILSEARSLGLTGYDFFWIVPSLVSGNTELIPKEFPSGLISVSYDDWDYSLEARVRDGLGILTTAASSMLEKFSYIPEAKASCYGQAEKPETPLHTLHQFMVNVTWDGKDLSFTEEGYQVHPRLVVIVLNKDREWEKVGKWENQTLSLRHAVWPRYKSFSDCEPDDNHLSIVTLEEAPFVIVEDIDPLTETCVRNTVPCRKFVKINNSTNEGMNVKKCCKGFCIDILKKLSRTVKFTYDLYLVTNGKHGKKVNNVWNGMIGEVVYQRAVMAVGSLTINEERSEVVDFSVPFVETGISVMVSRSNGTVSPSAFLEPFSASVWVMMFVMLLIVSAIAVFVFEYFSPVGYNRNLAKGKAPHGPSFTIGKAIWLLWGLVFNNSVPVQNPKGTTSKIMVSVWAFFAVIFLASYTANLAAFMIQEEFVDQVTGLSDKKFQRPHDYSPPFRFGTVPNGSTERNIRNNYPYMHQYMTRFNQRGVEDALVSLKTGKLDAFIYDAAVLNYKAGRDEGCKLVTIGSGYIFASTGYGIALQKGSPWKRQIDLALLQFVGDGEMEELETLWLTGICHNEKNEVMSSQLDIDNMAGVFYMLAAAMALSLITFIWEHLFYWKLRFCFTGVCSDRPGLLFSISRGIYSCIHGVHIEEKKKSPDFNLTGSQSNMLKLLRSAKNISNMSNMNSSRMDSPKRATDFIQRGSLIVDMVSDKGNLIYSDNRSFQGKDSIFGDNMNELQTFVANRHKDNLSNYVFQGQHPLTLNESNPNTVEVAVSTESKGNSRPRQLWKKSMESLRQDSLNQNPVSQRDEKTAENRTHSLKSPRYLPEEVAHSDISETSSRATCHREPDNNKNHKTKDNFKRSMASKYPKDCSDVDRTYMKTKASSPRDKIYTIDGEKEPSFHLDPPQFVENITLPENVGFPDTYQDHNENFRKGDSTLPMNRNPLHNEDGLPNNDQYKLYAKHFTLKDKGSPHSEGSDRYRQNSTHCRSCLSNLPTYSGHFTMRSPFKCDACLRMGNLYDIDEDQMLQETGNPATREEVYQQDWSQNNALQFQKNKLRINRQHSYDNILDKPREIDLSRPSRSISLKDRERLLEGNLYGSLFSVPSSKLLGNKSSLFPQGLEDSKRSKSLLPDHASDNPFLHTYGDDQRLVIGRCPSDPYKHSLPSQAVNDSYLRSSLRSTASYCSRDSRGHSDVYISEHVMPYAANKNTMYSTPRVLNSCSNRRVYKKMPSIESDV
UniProt Q00959, 23-1464 V783L: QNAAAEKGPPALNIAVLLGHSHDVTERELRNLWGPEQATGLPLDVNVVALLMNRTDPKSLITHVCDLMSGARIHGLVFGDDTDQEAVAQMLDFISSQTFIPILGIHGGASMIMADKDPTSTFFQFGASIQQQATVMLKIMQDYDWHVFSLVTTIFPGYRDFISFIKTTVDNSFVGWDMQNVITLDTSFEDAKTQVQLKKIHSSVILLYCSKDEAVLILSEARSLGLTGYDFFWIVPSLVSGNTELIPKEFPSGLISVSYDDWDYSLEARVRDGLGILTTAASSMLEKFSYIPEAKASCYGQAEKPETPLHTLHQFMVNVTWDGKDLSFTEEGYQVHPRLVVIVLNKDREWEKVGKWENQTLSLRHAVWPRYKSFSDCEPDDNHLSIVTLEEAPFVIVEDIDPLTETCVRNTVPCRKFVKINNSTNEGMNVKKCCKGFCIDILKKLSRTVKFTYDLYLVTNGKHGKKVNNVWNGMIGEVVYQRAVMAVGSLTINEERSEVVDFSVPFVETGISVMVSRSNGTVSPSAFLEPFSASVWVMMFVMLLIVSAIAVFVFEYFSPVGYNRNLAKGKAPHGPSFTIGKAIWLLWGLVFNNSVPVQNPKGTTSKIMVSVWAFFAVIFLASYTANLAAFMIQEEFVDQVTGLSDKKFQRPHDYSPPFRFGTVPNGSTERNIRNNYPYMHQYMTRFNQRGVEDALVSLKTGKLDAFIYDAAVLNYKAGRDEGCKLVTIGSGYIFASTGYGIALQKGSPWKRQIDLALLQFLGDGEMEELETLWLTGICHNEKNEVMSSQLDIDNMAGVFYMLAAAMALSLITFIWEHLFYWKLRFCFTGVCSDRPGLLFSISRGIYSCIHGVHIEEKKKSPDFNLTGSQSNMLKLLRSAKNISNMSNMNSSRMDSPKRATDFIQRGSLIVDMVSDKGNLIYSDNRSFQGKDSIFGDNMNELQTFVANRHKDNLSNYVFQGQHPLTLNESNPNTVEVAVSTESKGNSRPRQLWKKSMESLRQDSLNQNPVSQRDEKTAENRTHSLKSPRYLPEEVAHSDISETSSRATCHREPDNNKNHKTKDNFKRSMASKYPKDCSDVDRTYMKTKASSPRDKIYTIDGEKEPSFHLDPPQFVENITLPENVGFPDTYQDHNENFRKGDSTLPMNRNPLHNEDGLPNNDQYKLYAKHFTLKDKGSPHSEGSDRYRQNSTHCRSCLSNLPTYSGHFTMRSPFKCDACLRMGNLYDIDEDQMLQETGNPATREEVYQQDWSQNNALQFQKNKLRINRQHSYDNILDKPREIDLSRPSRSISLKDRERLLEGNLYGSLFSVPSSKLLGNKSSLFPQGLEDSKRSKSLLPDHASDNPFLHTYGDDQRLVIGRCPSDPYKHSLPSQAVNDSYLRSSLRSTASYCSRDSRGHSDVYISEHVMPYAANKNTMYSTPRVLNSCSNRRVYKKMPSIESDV
UniProt Q00959, 23-1464 G786D: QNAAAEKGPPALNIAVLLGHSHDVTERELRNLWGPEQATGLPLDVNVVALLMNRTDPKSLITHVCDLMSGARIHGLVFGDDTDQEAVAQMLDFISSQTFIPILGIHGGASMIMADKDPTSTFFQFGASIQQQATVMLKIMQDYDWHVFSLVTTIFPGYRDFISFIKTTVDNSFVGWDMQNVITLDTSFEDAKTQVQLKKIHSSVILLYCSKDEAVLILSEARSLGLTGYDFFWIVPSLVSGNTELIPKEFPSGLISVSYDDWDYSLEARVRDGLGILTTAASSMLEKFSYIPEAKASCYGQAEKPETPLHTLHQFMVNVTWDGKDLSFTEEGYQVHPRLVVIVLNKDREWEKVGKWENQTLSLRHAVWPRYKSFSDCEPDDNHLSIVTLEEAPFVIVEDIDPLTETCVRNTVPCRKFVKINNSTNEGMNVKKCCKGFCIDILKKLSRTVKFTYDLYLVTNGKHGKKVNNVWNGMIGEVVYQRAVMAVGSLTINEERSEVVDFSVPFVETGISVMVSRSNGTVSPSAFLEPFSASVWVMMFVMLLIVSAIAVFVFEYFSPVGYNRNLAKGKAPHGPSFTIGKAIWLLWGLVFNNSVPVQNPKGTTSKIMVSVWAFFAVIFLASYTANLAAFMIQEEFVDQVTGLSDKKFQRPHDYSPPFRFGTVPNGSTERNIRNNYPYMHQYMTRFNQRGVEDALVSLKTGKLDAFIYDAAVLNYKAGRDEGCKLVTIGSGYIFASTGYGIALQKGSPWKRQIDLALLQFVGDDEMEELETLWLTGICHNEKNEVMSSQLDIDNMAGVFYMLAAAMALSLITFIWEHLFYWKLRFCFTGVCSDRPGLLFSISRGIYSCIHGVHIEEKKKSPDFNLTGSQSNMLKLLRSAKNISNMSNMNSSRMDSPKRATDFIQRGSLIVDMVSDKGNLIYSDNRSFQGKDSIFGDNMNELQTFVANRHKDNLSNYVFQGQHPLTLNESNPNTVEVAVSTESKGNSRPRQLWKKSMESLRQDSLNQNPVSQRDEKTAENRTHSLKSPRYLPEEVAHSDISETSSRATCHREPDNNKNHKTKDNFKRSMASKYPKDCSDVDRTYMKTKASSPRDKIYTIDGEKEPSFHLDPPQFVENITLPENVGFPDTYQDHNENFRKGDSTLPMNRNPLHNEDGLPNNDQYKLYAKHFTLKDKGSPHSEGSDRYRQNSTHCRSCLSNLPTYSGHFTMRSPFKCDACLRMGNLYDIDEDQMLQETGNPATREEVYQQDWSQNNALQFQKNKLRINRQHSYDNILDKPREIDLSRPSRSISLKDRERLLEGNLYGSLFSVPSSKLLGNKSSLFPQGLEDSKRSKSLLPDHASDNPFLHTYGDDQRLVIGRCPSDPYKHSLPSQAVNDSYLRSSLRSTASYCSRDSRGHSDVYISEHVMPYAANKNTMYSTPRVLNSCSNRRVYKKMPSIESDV
UniProt Q00959, 23-1464 E790M: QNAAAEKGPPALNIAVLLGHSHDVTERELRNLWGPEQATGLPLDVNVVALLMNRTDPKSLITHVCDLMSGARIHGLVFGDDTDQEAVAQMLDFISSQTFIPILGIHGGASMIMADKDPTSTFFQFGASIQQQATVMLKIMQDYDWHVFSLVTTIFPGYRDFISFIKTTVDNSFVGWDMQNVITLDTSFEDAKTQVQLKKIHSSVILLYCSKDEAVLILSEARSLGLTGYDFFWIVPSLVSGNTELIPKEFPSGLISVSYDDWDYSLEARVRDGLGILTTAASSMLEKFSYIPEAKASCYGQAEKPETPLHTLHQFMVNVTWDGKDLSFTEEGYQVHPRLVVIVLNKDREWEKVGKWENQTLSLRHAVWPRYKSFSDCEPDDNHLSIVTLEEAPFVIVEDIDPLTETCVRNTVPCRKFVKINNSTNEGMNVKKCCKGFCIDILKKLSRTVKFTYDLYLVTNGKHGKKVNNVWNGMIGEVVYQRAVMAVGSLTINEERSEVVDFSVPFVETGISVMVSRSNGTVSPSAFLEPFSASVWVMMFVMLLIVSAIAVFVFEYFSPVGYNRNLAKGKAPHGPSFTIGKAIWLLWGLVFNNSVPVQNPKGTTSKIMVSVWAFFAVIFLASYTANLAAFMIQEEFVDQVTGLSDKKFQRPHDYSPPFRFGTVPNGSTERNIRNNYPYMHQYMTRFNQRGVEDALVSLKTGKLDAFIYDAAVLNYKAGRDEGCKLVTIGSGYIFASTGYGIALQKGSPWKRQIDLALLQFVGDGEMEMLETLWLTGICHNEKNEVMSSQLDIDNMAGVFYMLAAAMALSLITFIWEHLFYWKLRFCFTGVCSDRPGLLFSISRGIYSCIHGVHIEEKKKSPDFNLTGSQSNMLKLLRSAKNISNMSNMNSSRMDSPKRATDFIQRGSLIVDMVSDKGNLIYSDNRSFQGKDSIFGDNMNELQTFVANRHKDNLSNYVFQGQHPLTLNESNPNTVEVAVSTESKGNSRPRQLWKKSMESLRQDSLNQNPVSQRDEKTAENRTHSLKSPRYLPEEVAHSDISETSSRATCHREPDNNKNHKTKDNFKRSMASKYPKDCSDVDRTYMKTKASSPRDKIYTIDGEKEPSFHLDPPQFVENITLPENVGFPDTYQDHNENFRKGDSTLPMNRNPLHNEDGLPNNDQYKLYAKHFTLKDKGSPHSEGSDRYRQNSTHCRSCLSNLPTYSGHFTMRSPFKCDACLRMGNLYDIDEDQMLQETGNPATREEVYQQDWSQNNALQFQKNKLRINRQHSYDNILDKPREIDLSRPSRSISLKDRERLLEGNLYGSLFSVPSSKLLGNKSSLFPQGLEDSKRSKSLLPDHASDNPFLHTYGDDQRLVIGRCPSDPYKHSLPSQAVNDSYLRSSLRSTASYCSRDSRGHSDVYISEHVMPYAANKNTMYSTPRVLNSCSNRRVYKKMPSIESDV

Structure (SMILES): NCC(=O)O [Glycine, glycine]
- Glycine activity nH ([1]; 0 μM TCN-201): 1.4
- Glycine activity nH ([1]; 10 μM TCN-201): 0.9
- Increase of glycine EC50 by TCN-201 ([1]; absence vs 10 μM TCN-201): 100 fold
- Glycine activity nH ([2]; 0 μM TCN-201): 1.2
- Glycine activity nH ([2]; 10 μM TCN-201): 1.1
- Glycine activity nH ([3]; 0 μM TCN-201): 1.2
- Glycine activity nH ([3]; 10 μM TCN-201): 1.5
- Glycine activity nH ([4]; 0 μM TCN-201): 1.2
- Glycine activity nH ([4]; 10 μM TCN-201): 1.5
- Glycine activity nH ([5]; 0 μM TCN-201): 1.4
- Glycine activity nH ([5]; 10 μM TCN-201): 1.3
- Glycine activity nH ([6]; 0 μM TCN-201): 1.5
- Glycine activity nH ([6]; 10 μM TCN-201): 1.1
- Glycine activity nH [7]: 1.4
- Glycine activity nH [8]: 1.5
- Glycine activity nH [9]: 1.5
- Increase in glycine EC50 compared to wild type GluN2A [10]: 2.2 fold
- Glycine activity nH ([10]; 100 μM glutamate, 0 μM TCN-201): 1.0
- Reduction in glycine EC50 compared to wild type GluN2A [11]: 2.2 fold
- Glycine activity nH ([11]; 100 μM glutamate, 0 μM TCN-201): 1.3
- Glycine activity nH [12]: 1.4
- Glycine activity nH [13]: 1.3
- Glycine activity nH [14]: 1.2
- Glycine activity nH [15]: 1.4
- Glycine activity nH [16]: 1.3
- Glycine activity nH [17]: 1.2
- Glycine activity nH [18]: 1.3
- Glycine activity nH [19]: 1.3
- Glycine activity nH [20]: 1.1
- Glycine activity nH [21]: 1.1
- Glycine activity nH [22]: 1.0
- Glycine activity nH [23]: 1.3
- Glycine activity nH [24]: 1.3
- Glycine activity nH [25]: 1.3
- Glycine activity nH [26]: 1.6
- Increase in glycine EC50 compared to wild type [27]: 4.0 fold
- Glycine activity nH ([27]; 100 μM glutamate, 0 μM TCN-201): 1.1

— article PMC3355950 (The Journal of Neuroscience, 2012)
